Common to all, as to assay type: cell-based
One experiment addresses T1, NPFFR1 Q123A (Homo sapiens, UniProt Q9GZQ6, Q123A).
T1 construct: expressed in transfected cells; host or cells: HEK293T
Description: GloSensor cAMP accumulation assay, NPFFR1 Q123A. The conditions noted are these: HEK293T, Gi signaling, mean ± S.E.M., three independent experiments in triplicates.

Amino acid sequences for entries named in this document (tags omitted).
UniProt Q9GZQ6, whole entry Q123A: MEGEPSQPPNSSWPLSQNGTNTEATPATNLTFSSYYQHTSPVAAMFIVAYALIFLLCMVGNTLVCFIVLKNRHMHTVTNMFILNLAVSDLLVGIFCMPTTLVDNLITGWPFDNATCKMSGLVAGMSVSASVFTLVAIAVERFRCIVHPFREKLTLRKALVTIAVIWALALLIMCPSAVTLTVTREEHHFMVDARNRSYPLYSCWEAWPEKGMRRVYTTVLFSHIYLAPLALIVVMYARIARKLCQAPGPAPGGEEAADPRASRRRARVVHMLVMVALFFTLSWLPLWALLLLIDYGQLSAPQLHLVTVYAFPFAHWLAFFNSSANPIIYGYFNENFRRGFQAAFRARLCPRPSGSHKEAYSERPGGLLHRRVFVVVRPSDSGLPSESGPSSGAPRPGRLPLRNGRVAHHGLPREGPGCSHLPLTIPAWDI
UniProt Q9GZQ6, whole entry D103A: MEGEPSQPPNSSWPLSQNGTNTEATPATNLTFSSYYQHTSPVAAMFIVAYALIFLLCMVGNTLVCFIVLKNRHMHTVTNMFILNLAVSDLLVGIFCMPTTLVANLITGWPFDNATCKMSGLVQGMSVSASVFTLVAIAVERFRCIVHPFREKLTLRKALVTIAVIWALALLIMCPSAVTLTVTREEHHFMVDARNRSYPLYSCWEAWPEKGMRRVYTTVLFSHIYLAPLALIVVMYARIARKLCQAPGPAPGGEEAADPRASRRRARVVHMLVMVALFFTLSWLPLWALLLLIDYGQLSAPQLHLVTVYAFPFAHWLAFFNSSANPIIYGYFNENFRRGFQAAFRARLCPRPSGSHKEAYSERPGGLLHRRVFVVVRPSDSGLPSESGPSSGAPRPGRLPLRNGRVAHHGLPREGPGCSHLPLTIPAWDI
UniProt Q9GZQ6, whole entry S202A: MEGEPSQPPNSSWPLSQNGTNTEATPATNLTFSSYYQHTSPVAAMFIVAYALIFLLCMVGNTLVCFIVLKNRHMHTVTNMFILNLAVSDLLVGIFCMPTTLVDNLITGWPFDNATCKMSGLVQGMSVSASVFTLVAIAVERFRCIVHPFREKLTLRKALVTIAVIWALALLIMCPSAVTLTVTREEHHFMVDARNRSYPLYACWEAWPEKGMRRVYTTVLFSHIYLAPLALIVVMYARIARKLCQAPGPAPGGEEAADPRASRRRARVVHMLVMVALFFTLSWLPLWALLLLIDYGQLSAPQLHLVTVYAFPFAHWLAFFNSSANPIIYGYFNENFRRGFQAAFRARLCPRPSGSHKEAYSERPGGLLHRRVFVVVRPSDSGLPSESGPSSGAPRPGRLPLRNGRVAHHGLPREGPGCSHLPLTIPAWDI
UniProt Q9GZQ6, whole entry T100A: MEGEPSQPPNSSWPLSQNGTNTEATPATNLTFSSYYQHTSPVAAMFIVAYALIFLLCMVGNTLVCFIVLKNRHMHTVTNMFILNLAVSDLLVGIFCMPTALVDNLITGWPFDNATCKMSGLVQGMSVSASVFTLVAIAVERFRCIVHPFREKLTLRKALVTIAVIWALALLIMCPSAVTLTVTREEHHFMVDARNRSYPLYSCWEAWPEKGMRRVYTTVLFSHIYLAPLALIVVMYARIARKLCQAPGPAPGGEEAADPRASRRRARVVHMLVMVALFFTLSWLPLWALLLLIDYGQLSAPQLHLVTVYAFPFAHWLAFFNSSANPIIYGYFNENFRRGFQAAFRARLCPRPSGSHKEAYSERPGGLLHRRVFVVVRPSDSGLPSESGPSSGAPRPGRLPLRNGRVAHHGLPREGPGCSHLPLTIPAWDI
UniProt Q9GZQ6, whole entry W204A: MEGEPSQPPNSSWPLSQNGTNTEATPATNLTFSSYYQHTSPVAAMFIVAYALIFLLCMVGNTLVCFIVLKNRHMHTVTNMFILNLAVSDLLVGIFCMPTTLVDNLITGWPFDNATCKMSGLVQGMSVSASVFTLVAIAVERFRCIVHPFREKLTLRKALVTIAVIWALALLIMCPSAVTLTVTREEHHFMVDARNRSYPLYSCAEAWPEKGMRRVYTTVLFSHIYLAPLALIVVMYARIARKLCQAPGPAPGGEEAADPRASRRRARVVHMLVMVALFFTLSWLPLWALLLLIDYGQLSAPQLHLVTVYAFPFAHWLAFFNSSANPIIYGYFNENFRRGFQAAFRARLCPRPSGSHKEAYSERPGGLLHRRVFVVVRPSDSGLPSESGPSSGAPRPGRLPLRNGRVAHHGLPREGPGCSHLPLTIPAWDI
UniProt Q9GZQ6, whole entry W287F: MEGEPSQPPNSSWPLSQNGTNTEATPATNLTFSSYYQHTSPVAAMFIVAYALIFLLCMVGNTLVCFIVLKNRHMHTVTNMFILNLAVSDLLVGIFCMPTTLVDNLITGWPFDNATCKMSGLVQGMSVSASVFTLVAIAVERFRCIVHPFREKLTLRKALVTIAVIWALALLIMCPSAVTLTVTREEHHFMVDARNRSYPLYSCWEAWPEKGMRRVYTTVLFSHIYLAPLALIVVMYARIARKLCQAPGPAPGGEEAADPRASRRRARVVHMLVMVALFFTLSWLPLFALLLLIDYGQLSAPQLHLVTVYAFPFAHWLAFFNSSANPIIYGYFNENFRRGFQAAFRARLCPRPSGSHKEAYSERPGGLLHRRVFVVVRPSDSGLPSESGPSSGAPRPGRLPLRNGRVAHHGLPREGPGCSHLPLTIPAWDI
UniProt Q9GZQ6, whole entry H315A: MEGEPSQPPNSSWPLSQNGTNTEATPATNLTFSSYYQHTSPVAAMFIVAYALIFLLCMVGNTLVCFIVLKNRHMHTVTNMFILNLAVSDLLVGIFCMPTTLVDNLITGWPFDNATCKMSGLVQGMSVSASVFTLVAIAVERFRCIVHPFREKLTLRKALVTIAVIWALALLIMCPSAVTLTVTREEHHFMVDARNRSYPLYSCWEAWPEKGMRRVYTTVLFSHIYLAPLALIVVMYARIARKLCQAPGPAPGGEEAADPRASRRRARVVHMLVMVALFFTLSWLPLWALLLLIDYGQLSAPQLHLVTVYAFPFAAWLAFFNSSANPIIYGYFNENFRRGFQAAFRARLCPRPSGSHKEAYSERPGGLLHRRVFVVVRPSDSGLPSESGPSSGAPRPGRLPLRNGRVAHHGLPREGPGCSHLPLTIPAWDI
UniProt Q9GZQ6, whole entry W287L: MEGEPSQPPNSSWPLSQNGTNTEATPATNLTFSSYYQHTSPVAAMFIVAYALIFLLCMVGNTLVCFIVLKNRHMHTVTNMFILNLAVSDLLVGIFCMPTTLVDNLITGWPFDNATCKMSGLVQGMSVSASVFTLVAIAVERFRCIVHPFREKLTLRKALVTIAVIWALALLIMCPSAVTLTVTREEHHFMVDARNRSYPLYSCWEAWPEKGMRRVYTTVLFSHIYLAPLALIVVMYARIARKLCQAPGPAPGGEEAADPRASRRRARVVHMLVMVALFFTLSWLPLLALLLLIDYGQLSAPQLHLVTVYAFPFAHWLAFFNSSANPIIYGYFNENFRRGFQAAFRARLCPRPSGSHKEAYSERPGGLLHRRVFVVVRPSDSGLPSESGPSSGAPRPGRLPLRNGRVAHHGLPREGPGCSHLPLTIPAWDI
UniProt Q9GZQ6, whole entry W287A: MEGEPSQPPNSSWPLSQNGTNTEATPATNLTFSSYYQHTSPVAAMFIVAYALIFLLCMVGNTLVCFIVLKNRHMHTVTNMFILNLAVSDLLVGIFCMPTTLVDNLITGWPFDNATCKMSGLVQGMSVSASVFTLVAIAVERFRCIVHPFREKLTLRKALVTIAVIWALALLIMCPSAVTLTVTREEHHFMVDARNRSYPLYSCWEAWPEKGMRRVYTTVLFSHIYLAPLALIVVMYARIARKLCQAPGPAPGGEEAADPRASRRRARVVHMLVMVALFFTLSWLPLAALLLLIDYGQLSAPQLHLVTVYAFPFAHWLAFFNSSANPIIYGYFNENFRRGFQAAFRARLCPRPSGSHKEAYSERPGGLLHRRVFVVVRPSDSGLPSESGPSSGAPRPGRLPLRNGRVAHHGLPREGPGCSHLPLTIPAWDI
UniProt Q9GZQ6, whole entry T217A: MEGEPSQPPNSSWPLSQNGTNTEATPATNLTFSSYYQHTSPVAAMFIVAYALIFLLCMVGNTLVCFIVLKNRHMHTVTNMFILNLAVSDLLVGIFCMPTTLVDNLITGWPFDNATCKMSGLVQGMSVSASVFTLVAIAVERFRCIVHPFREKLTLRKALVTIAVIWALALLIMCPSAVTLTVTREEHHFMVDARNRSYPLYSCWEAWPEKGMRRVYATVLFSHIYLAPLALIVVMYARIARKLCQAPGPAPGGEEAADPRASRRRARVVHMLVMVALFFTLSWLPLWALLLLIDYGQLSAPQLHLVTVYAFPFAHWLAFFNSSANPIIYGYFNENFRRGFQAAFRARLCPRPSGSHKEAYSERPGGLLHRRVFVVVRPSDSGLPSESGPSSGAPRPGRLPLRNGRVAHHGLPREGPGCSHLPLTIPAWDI
UniProt Q9GZQ6, whole entry Y216A: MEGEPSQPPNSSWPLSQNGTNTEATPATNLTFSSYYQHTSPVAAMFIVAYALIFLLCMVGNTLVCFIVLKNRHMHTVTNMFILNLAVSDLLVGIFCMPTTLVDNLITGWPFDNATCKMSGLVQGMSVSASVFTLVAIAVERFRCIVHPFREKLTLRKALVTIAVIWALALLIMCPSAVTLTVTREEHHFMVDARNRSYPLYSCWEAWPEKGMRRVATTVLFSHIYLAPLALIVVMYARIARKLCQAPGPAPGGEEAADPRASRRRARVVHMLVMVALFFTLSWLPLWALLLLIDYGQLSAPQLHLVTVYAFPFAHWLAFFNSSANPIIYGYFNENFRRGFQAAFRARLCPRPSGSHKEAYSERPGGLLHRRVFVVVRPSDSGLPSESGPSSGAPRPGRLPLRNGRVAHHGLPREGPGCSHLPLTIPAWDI
UniProt Q9GZQ6, whole entry E185A: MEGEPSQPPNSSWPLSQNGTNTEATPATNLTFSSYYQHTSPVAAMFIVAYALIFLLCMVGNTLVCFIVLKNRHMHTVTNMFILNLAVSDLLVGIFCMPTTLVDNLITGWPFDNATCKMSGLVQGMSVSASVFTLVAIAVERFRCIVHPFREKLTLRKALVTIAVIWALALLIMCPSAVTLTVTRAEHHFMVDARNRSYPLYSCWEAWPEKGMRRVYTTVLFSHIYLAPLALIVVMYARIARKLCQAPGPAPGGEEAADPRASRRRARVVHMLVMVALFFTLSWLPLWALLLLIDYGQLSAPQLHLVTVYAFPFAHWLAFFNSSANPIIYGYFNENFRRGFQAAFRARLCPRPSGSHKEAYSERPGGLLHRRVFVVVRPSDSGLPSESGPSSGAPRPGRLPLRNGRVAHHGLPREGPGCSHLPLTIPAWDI

A further experiment deals with T2, NPFFR1 D103A (Homo sapiens, UniProt Q9GZQ6, D103A).
T2 construct: expressed in transfected cells; host or cells: HEK293T
Description: GloSensor cAMP accumulation assay, NPFFR1 D103A. The settings on record: HEK293T, Gi signaling, mean ± S.E.M., three independent experiments in triplicates.

A further experiment deals with T3, NPFFR1 S202A (Homo sapiens, UniProt Q9GZQ6, S202A).
T3 construct: expressed in transfected cells; host or cells: HEK293T
Description: GloSensor cAMP accumulation assay, NPFFR1 S202A. The conditions noted are these: HEK293T, Gi signaling, mean ± S.E.M., three independent experiments in triplicates.

Another experiment has as its target T4, NPFFR1 T100A (Homo sapiens, UniProt Q9GZQ6, T100A).
T4 construct: expressed in transfected cells; host or cells: HEK293T
Put plainly: GloSensor cAMP accumulation assay, NPFFR1 T100A. The conditions noted are these: HEK293T, Gi signaling, mean ± S.E.M., three independent experiments in triplicates.

The target in another experiment is T5, NPFFR1 W204A (Homo sapiens, UniProt Q9GZQ6, W204A).
T5 construct: expressed in transfected cells; host or cells: HEK293T
Description: GloSensor cAMP accumulation assay, NPFFR1 W204A. The conditions noted are these: NPFFR1 W204A (expression level 33.06 %WT), HEK293T, Gi signaling; three independent experiments in triplicates.

For the next experiment, the target named is T6, NPFFR1 W287F (Homo sapiens, UniProt Q9GZQ6, W287F).
T6 construct: expressed in transfected cells; host or cells: HEK293T
Description: GloSensor cAMP accumulation assay, NPFFR1 W287F. The settings on record: HEK293T, Gi signaling, three independent experiments in triplicates.

The next experiment concerns the target T7, NPFFR1 H315A (Homo sapiens, UniProt Q9GZQ6, H315A).
T7 construct: expressed in transfected cells; host or cells: HEK293T
Description: GloSensor cAMP accumulation assay, NPFFR1 H315A. The conditions noted are these: HEK293T, Gi signaling, mean ± S.E.M., three independent experiments in triplicates.

Another experiment deals with T8, NPFFR1 W287L (Homo sapiens, UniProt Q9GZQ6, W287L).
T8 construct: expressed in transfected cells; host or cells: HEK293T
Put plainly: GloSensor cAMP accumulation assay, NPFFR1 W287L. The conditions noted are these: HEK293T, Gi signaling, three independent experiments in triplicates.

The target in the next experiment is T9, NPFFR1 W287A (Homo sapiens, UniProt Q9GZQ6, W287A).
T9 construct: expressed in transfected cells; host or cells: HEK293T
Description: GloSensor cAMP accumulation assay, NPFFR1 W287A. The conditions noted are these: HEK293T, Gi signaling, three independent experiments in triplicates.

The target of a further experiment is T10, NPFFR1 T217A (Homo sapiens, UniProt Q9GZQ6, T217A).
T10 construct: expressed in transfected cells; host or cells: HEK293T
Description: GloSensor cAMP accumulation assay, NPFFR1 T217A. The conditions noted are these: HEK293T, Gi signaling, three independent experiments in triplicates.

A further experiment has as its target T11, NPFFR1 Y216A (Homo sapiens, UniProt Q9GZQ6, Y216A).
T11 construct: expressed in transfected cells; host or cells: HEK293T
Put plainly: GloSensor cAMP accumulation assay, NPFFR1 Y216A. The conditions noted are these: HEK293T, Gi signaling, three independent experiments in triplicates.

The next experiment addresses T12, NPFFR1 E185A (Homo sapiens, UniProt Q9GZQ6, E185A).
T12 construct: expressed in transfected cells; host or cells: HEK293T
Description: GloSensor cAMP accumulation assay, NPFFR1 E185A. The settings on record: NPFFR1 E185A (expression level 34.94 %WT), HEK293T, Gi signaling; three independent experiments in triplicates.

As to `CC(C)C[C@H](NC(=O)[C@H](CC(N)=O)NC(=O)[C@@H]1CCCN1C(=O)[C@@H](N)C(C)C)C(=O)N1CCC[C@H]1C(=O)N[C@@H](CCC(N)=O)C(=O)N[C@@H](CCCNC(=N)N)C(=O)N[C@@H](Cc1ccccc1)C(N)=O` [RFRP-3, RF-amide related peptide-3], the EC50 is 0.00631 µM at NPFFR1 Q123A; greater than 30.2 µM at NPFFR1 D103A; 0.0002 µM at NPFFR1 S202A; 0.2 µM on NPFFR1 T100A; greater than 30.2 µM on NPFFR1 W204A; greater than 30.2 µM on NPFFR1 W287F. The EC50 at NPFFR1 H315A, at NPFFR1 W287L, at NPFFR1 W287A, on NPFFR1 T217A, at NPFFR1 Y216A and at NPFFR1 E185A was greater than 30.2 µM throughout.

The values are drawn from PMC13107563 (Protein & Cell, 2025).
